Experimental data as given in patent publication US10947229B2, “Dimethyl amino azetidine amides as JAK inhibitors” (THERAVANCE BIOPHARMA R&D IP, LLC, priority 2018, dated 2021).

Amino acid sequences for entries named in this document (tags omitted). A change or cut given only in a name is not applied to a line headed by its entry.
UniProt P23458: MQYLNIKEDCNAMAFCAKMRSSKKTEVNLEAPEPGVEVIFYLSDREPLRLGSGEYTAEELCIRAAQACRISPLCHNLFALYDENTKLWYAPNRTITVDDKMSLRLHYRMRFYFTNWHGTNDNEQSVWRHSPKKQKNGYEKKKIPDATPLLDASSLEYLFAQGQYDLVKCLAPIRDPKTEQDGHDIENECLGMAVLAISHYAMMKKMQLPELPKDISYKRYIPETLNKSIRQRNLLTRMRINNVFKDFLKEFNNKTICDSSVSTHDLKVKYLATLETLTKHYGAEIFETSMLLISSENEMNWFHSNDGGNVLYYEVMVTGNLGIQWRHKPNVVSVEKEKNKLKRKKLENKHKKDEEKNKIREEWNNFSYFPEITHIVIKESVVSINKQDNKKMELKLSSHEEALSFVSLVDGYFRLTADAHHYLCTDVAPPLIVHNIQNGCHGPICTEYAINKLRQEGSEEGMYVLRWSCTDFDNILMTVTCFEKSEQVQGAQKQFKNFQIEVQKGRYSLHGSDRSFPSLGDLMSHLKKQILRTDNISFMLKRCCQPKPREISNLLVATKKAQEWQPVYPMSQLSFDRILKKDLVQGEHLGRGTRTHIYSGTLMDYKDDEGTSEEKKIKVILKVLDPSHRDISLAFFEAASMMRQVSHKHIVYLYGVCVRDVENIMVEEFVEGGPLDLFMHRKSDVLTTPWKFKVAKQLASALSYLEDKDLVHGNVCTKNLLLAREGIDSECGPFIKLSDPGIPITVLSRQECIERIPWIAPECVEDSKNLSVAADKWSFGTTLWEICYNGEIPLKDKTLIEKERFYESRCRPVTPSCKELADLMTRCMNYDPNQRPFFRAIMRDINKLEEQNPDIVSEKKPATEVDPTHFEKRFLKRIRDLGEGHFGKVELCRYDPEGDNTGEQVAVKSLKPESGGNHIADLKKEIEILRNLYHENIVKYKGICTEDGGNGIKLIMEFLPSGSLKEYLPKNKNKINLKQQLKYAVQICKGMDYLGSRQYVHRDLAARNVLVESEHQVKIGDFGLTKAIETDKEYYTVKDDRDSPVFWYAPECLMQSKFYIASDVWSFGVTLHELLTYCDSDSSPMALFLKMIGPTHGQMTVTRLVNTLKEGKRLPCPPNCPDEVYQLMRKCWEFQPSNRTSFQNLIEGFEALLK
UniProt P52333: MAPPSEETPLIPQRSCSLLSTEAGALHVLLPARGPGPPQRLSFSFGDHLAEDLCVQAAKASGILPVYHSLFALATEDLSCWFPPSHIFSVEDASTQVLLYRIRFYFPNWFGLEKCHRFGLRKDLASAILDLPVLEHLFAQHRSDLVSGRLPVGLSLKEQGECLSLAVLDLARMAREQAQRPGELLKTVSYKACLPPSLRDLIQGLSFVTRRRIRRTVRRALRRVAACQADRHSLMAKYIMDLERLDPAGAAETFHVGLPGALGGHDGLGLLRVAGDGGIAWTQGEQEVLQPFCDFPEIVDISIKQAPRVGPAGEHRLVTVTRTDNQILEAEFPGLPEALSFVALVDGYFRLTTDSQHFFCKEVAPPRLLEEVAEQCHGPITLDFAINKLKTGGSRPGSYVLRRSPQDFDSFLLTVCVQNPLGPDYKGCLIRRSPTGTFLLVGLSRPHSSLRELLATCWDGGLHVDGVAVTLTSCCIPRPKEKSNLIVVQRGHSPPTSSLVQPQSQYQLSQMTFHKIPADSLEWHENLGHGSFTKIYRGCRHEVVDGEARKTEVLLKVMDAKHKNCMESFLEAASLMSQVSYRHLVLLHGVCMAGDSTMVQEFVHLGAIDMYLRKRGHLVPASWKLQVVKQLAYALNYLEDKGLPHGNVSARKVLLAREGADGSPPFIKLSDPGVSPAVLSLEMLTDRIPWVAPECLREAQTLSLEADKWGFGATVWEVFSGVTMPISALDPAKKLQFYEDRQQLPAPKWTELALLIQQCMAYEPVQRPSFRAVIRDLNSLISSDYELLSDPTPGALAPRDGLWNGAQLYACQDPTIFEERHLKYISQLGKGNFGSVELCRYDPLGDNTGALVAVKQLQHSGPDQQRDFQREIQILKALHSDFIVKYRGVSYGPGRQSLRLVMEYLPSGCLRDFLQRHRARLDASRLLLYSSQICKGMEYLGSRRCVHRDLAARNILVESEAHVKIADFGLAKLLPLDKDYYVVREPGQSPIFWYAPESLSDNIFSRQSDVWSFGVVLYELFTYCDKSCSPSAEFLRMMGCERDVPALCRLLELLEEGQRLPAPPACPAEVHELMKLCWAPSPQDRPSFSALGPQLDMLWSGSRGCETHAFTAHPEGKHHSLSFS
UniProt P29597: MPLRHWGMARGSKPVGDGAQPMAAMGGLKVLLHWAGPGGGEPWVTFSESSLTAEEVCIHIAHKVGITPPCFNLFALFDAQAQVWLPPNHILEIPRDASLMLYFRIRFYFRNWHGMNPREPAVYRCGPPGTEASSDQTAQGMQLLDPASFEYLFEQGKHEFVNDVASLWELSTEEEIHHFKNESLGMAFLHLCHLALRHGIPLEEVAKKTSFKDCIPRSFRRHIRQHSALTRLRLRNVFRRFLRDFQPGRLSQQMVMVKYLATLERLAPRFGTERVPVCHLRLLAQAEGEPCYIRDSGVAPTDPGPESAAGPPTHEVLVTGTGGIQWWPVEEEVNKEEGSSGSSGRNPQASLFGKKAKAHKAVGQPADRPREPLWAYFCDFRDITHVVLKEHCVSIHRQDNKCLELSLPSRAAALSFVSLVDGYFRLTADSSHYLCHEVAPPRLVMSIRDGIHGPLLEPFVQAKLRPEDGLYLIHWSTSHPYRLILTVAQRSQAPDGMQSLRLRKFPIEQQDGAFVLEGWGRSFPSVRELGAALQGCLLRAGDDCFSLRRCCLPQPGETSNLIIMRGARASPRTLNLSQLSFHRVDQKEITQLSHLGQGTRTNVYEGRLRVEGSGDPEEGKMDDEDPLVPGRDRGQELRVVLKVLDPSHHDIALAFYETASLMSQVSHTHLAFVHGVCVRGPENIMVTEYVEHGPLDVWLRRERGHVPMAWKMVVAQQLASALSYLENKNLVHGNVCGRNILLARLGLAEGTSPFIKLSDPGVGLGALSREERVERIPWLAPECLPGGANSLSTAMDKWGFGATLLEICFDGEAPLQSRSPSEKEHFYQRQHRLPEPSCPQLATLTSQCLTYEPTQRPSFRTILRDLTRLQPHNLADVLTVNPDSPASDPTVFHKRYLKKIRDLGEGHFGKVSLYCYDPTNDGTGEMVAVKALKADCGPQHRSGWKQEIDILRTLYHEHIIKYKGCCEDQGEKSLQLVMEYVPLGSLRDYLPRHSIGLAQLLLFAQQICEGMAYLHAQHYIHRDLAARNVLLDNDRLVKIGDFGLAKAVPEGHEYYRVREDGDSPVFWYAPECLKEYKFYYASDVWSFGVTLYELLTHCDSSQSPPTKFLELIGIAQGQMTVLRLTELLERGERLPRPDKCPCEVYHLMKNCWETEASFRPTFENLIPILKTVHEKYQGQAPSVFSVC

Columns and labels:
[1] = target: JAK1 (Homo sapiens (Human), UniProt P23458); assay: Biochemical JAK kinase assay (LanthaScreen), JAK1
Protocol: (§1) Recombinant GST-tagged JAK enzymes and a GFP-tagged STAT1 peptide substrate were obtained from Life Technologies. Serially diluted compounds were pre-incubated with each of the four JAK enzymes and the substrate in white 384-well microplates (Corning) at ambient temperature for 1 h. ATP was subsequently added to initiate the kinase reactions in 10 μL total volume, with 1% DMSO. […] Kinase reactions were allowed to proceed for 1 hour at ambient temperature before a 10 μL preparation of EDTA (10 mM final concentration) and Tb-anti-pSTAT1 ([…]) antibody (Life Technologies, 2 nM final concentration) in TR-FRET dilution buffer (Life Technologies) was added. The plates were allowed to incubate at ambient temperature for 1 h before being read on the EnVision reader (Perkin Elmer). Emission ratio signals (520 nm/495 nm) were recorded and utilized to calculate the percent inhibition values based on DMSO and background controls. For dose-response analysis, percent inhibition data were plotted vs. compound concentrations, and IC50 values were determined from a 4-parameter robust fit model with the Prism software (GraphPad Software). Results were expressed as pIC50 (negative logarithm of IC50) and subsequently converted to pKi (negative logarithm of dissociation constant, Ki) using the Cheng-Prusoff equation.

[2] = target: JAK3 (Homo sapiens (Human), UniProt P52333); assay: Biochemical JAK kinase assay (LanthaScreen), JAK3
Protocol: as §1

[3] = target: Tyk2 (Homo sapiens (Human), UniProt P29597); assay: Biochemical JAK kinase assay (LanthaScreen), Tyk2
Protocol: as §1, with “equation. […]” for “equation.”

## CCc1cc(O)c(F)cc1-c1ccc2c(-c3nc4c([nH]3)CN(CC)[C@H](C(=O)N3CC(N(C)C)C3)C4)n[nH]c2c1 [Compound C-2, (S)-(3-(dimethylamino)azetidin-1-yl)(5-ethyl-2-(6-(2-ethyl-5-fluoro-4-hydroxyphenyl)-1H-indazol-3-yl)-4,5,6,7-tetrahydro-3H-imidazo[4,5-c]pyridin-6-yl)methanone]
[1]
  JAK1 pKi: 10.2

## CCc1cc(O)c(F)cc1-c1ccc2c(-c3nc4c([nH]3)CN(CC)[C@H](C(=O)N3CC(C)(N(C)C)C3)C4)n[nH]c2c1 [Compound C-3, (S)-(3-(dimethylamino)-3-methylazetidin-1-yl)(5-ethyl-2-(6-(2-ethyl-5-fluoro-4-hydroxyphenyl)-1H-indazol-3-yl)-4,5,6,7-tetrahydro-3H-imidazo[4,5-c]pyridin-6-yl)methanone]
[2]
  JAK3 pKi: 9.7
[1]
  JAK1 pKi: 10.3

## CCc1cc(O)c(F)cc1-c1ccc2c(-c3nc4c([nH]3)CN(C(C)C)[C@H](C(=O)N3CC(C)(N(C)C)C3)C4)n[nH]c2c1 [Compound C-4, (S)-(3-(dimethylamino)-3-methylazetidin-1-yl)(2-(6-(2-ethyl-5-fluoro-4-hydroxyphenyl)-1H-indazol-3-yl)-5-isopropyl-4,5,6,7-tetrahydro-3H-imidazo[4,5-c]pyridin-6-yl)methanone]
[3]; read-out: Tyk2 pKi (converted)
  Ki: 0.398 nM
[2]; read-out: JAK3 pKi (converted)
  Ki: 0.316 nM

## CCCN1Cc2[nH]c(-c3n[nH]c4cc(-c5cc(F)c(O)cc5CC)ccc34)nc2C[C@H]1C(=O)N1CC(C)(N(C)C)C1 [Compound C-6, (S)-(3-(dimethylamino)-3-methylazetidin-1-yl)(2-(6-(2-ethyl-5-fluoro-4-hydroxyphenyl)-1H-indazol-3-yl)-5-propyl-4,5,6,7-tetrahydro-3H-imidazo[4,5-c]pyridin-6-yl)methanone]
[3]
  Tyk2 pKi: 9.3
[2]
  JAK3 pKi: 10.0
[1]
  JAK1 pKi: 10.3
